How the values were obtained:
[1] = target: cynomolgus monkey Claudin18.2 (cynomolgus monkey); assay: FACS on HEK293T-Claudin18.2 (cynomolgus monkey) cells
[2] = target: cynomolgus monkey Claudin18.2 (cynomolgus monkey); assay: FACS, IMAB362 20 µg/mL, HEK293T-Claudin18.2 (cynomolgus monkey) cells

Question: With reference antibody IMAB362 as the substance, how does the EC50 [1] read?
Answer: 0.243 µg/mL

Question: What about the positive rate (%) [2] of the same substance?
Answer: > 95%
